Measurements taken from patent US20230295119A1, “SUBSTITUTED PYRIDINES FOR THE TREATMENT OF INFLAMMATORY DISEASES” (GOSSAMER BIO SERVICES, INC., priority 2020, published 2023).

Sequences of proteins named here, by UniProt entry; tags and fusion partners are left off. Residues count along the entry.
UniProt P29597, 589-875 limits assumed: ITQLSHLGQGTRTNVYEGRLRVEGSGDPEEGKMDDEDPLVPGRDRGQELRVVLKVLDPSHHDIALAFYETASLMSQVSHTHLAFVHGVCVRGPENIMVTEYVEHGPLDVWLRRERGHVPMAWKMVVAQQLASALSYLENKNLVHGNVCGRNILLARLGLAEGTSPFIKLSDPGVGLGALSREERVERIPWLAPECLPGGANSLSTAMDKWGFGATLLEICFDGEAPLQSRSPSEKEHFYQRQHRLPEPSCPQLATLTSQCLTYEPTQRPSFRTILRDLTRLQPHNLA
UniProt O60674, whole entry: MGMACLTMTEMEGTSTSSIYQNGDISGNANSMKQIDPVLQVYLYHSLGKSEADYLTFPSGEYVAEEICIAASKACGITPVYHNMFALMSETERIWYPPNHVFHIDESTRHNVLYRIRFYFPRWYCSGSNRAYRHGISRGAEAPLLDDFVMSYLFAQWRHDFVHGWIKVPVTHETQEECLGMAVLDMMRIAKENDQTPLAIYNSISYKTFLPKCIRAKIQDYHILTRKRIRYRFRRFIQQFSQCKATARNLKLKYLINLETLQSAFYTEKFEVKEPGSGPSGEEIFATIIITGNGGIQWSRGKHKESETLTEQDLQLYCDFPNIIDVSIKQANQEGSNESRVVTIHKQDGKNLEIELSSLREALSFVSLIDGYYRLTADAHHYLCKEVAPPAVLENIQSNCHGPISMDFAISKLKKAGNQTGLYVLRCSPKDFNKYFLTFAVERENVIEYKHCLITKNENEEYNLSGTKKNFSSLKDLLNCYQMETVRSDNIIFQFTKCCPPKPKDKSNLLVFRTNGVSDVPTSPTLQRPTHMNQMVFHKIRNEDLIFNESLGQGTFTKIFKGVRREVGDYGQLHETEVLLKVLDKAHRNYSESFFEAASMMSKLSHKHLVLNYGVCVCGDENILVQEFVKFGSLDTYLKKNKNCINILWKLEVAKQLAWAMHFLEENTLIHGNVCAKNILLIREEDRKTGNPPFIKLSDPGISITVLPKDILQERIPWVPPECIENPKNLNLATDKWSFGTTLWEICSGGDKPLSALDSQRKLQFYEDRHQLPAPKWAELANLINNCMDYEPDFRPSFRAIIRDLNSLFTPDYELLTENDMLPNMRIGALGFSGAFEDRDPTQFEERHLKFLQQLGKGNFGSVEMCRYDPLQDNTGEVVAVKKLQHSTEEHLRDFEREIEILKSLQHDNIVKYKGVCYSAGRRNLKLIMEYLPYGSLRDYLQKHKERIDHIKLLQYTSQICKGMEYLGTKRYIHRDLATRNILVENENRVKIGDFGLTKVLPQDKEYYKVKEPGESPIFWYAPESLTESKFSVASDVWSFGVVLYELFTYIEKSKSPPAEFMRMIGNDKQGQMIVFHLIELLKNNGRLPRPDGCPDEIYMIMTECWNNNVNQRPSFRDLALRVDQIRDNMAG

Key:
[1] = molecular target: TYK2 JH2 domain (Homo sapiens (Human), UniProt P29597); test: TYK2 JH2 NanoBRET assay; format: binding; settings: read-out: TYK2 IC50, Table 20
[2] = molecular target: human JAK2 (Homo sapiens (Human), UniProt O60674); test: JAK2 TR-FRET kinase assay; settings: read-out: JAK2 IC50, JAK2 0.025 nM

| IC50 [1] [nM] | IC50 [2] [nM] | SMILES |
| --- | --- | --- |
| 5 to 50 | 50 to 500 | CCC(=O)c1cnc(Nc2ccc(C(C)(C)N)cn2)cc1Nc1cccc(-c2ncn(C)n2)c1OC |
|  | 50 to 500 | CCC(=O)c1cnc(Nc2ccc(C(C)(C)NC)cn2)cc1Nc1cccc(-c2ncn(C)n2)c1OC |
